## Ab-14 light chain CDR variants: yeast mating affinities

Target peptide (SARS-CoV-2 spike, HR2 region): PDVDLGDISGINAS

Parent scFv Ab-14: VH joined to VL by a (GGGGS)3 linker. Changes lie in the light chain CDRs alone.
VH: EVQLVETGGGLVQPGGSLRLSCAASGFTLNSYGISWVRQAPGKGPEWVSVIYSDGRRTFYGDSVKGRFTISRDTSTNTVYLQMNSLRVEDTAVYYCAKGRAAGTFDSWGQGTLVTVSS
VL: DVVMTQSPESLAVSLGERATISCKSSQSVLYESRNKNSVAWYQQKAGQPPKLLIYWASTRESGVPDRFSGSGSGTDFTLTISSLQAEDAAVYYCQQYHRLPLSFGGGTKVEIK

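The parent was found by panning a naive human phage display library on the peptide. Variants in AAYL50 differ from the parent at up to three CDR positions; double and triple changes were sampled at random. AlphaSeq pools MATa yeast showing the antibodies with MATalpha yeast showing the peptide. Mating (16 h, 30 °C) was followed by selection of diploids and sequencing of their barcodes. Scores were corrected for input abundance and mapped to Kd with protein pairs of known affinity run in the same pool. Mating was done three times.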

Substitutions are numbered in sequence along the VL above, starting at 1 (not Kabat). This list gathers variants with a substitution at E61 (VL, numbered from residue 1). Kd is apparent (estimated from mating counts) and averaged on the log scale over replicates with a signal. Smaller is tighter. A pair that was not seen in any replicate is written "not detected"; this usually means weak binding, but a binder can also be missed.

changes	apparent Kd	detected
Y31G/E61R	250 nM	3/3
Q27I/E61Y/L100D	16 nM	3/3
Y31T/E61Q/Q96V	not detected	0/3
E32L/S38P/E61S	310 nM	1/3
S26K/N35T/E61H	700 nM	3/3
N37T/E61V	29 nM	3/3
S58W/E61S	410 nM	3/3
W56N/E61P/P101H	not detected	0/3
Y31H/A57L/E61P	not detected	0/3
A40P/T59L/E61C	not detected	0/3
V39W/W56Y/E61G	not detected	0/3
S28N/E61V	4.5 nM	3/3
Y31A/R34Y/E61G	2.6 nM	3/3
S28A/V29A/E61I	5.7 nM	3/3
S28A/T59W/E61V	33 nM	3/3
E61Q/R99G/S103E	not detected	0/3
E32L/N37F/E61P	1.0 µM	2/3
Q27M/E61H/S62I	19 nM	3/3
K36L/E61Q/Q96W	6.6 nM	3/3
E32Q/E61W/Q95L	620 nM	1/3
S33N/E61C/Q96M	1.3 µM	3/3
L30M/R60A/E61Q	1.4 µM	2/3
E61M/S62D/S103V	not detected	0/3
S33A/E61W/R99W	180 nM	3/3
S25K/R34K/E61L	2.1 µM	3/3
L30V/T59L/E61C	86 nM	3/3
S33V/E61K	24 µM	3/3
A57R/E61M/Q96I	1.9 µM	2/3
N35G/E61M	8.8 nM	3/3
R60S/E61W/Q96H	4.3 µM	2/3
L30A/A40Q/E61T	9.6 µM	1/3
S25L/E61M/L102T	740 pM	3/3
E61M/P101C/S103R	not detected	0/3
S26P/A57N/E61P	2.0 µM	1/3
L30Q/E61T	16 nM	3/3
Y31N/E61P	21 nM	3/3
E61S/Q95N/Y97W	26 nM	3/3
Q27T/W56G/E61L	1.6 nM	3/3
N35S/K36S/E61G	not detected	0/3
Y31K/R34H/E61S	20 nM	3/3
K24R/T59Y/E61W	170 nM	2/3
R34Q/E61I/Y97W	not detected	0/3
S28K/E32M/E61N	340 nM	3/3
L30V/E61C/H98P	30 µM	3/3
N37Q/T59A/E61C	58 nM	3/3
N37S/A57P/E61W	97 µM	2/3
Y31R/E61G/S103P	not detected	0/3
L30Y/E61M	9.3 nM	3/3

Top 5 of the variants detected in all replicates, tightest first:

changes,apparent Kd,detected
S25L/E61M/L102T,740 pM,3/3
Q27T/W56G/E61L,1.6 nM,3/3
Y31A/R34Y/E61G,2.6 nM,3/3
S28N/E61V,4.5 nM,3/3
S28A/V29A/E61I,5.7 nM,3/3

Empty control strains, which show no peptide, gave a signal in 18% of pairings with library AAYL50; the median was 15 µM and 95% of these signals were weaker than 970 nM. No background was subtracted. For reference, the parent read 4.4 nM as the reference entry and 48 nM as a member of this library.

Data: MIT Lincoln Laboratory AlphaSeq set, Engelhart et al. 2022, doi:10.1038/s41597-022-01779-4, as distributed in FLAb.